SMILES strings stand for the structures.

Protein sequences, listed by entry. Tags and fused reporters are not part of them. Residues count along the entry.
UniProt P55055, 222-460: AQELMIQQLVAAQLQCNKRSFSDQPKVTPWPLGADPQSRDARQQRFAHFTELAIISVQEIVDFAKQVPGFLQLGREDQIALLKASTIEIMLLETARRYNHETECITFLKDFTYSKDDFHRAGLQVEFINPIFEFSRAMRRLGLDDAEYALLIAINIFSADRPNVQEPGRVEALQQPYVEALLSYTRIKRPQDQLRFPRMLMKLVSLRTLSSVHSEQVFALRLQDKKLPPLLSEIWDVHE

This experiment has as its target LXR β LBD protein (Homo sapiens (Human), UniProt P55055). Briefly: LXR β radioligand binding assay (SPA, [3H]T0901317 competition). Particulars: competition with 15 nM [3H]T0901317, LXRβ LBD.
As usually defined, the Ki is the dissociation constant of the complex between target and ligand, obtained from inhibition or displacement. Read a high Ki as lower affinity. `CC(O)c1cnc(N2CCn3c(nc4cc(CO)c(S(C)(=O)=O)cc43)[C@@H]2C(C)C)nc1C(F)(F)F` (single isomer, unassigned) [Compound E8a, 1-(2-(8-(hydroxymethyl)-1-isopropyl-7-(methylsulfonyl)-3,4-dihydrobenzo[4,5]imidazo[1,2-a]pyrazin-2(1H)-yl)-4-(trifluoromethyl)pyrimidin-5-yl)ethanol] came in with an inhibition constant Ki of 1650 nM. Take `CC(O)c1cnc(N2CCn3c(nc4cc(CO)c(S(C)(=O)=O)cc43)[C@H]2C(C)C)nc1C(F)(F)F` (single isomer, unassigned) [Compound E8b, 1-(2-(8-(hydroxymethyl)-1-isopropyl-7-(methylsulfonyl)-3,4-dihydrobenzo[4,5]imidazo[1,2-a]pyrazin-2(1H)-yl)-4-(trifluoromethyl)pyrimidin-5-yl)ethanol]: the inhibition constant Ki was 13 nM. The figure for `CC(O)c1cnc(N2CCn3c(nc4cc(CO)c(S(C)(=O)=O)cc43)[C@H]2C(C)C)nc1C(F)(F)F` (single isomer, unassigned) [Compound E8c, 1-(2-(8-(hydroxymethyl)-1-isopropyl-7-(methylsulfonyl)-3,4-dihydrobenzo[4,5]imidazo[1,2-a]pyrazin-2(1H)-yl)-4-(trifluoromethyl)pyrimidin-5-yl)ethanol] is 9 nM; for `CC(O)c1cnc(N2CCn3c(nc4cc(CO)c(S(C)(=O)=O)cc43)[C@@H]2C(C)C)nc1C(F)(F)F` (single isomer, unassigned) [Compound E8d, 1-(2-(8-(hydroxymethyl)-1-isopropyl-7-(methylsulfonyl)-3,4-dihydrobenzo[4,5]imidazo[1,2-a]pyrazin-2(1H)-yl)-4-(trifluoromethyl)pyrimidin-5-yl)ethanol] it is 1330 nM; for `CCC(O)c1cnc(N2CCn3c(nc4cc(CO)c(S(C)(=O)=O)cc43)[C@H]2C(C)C)nc1C(F)(F)F` (single isomer, unassigned) [Compound E10c, 1-(2-(8-(hydroxymethyl)-1-isopropyl-7-(methylsulfonyl)-3,4-dihydrobenzo[4,5]imidazo[1,2-a]pyrazin-2(1H)-yl)-4-(trifluoromethyl)pyrimidin-5-yl)propan-1-ol] it is 7 nM.
